Patent US20260042727A1, “COMPLEX OF 3-HYDROXY-3-METHYLBUTYRIC ACID AND SALT THEREOF, AND PREPARATION METHOD THEREFOR” (NANJING NUTRABUILDING BIO-TECH CO., LTD., priority 2023, published 2026)

Test: Solubility of 3-hydroxy-3-methylbutyrate salts and complexes
Format: physicochemical
Source text: The solubility of various 3-hydroxy-3-methylbutyrate salts and the complexes of Examples was each determined.

calcium 3-hydroxy-3-methylbutyrate
Solubility: 15 g/100
